Earlier results, collected in patent publication US20050009903A1, “CB2-selective cannabinoid analogues” (priority 2003, published 2005).

By UniProt entry, the sequences of proteins in these tests, tags left out.
UniProt P34972, whole entry: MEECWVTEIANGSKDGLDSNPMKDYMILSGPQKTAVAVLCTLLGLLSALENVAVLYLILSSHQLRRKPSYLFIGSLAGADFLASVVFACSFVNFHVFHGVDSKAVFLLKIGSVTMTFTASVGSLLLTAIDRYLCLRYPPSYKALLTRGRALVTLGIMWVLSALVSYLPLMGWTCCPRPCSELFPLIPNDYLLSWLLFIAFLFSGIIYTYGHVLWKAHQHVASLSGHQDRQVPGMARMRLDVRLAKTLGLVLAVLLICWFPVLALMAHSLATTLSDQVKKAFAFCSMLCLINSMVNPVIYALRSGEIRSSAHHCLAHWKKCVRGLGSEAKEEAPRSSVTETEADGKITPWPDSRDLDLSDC

Biological target: CB2 receptor (Homo sapiens, UniProt P34972)
Conditions: read-out: Ki CB2 receptor; Hanus et al.; cited from earlier work

CCCCCCC(C)(C)c1cc(OC)c([C@@H]2C=C(CO)[C@@H]3C[C@H]2C3(C)C)c(OC)c1 [HU-308]
Ki: 22.7 ± 3.9 nM
